This note sets out measurements from US6835539B1, “Nucleic sequences coding for an AT2 interacting proteins interacting with the AT2 receptor and their applications” (priority 1998, dated 2004).

In this test the target is T1, AT2 receptor (Homo sapiens, UniProt P50052).
T1 sequence (P50052 1-363): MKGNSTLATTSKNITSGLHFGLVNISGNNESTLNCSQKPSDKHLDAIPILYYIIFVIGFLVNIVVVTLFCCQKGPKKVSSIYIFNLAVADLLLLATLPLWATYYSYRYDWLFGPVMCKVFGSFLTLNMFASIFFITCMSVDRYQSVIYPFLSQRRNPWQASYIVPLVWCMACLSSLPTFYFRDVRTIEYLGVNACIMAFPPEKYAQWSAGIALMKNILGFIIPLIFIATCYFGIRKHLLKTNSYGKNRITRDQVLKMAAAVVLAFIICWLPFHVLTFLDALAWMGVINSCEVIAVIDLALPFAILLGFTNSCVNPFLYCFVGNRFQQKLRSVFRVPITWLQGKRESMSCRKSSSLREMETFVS
The test is described as follows: Inhibition of insulin-induced tyrosine phosphorylation in CHO-hAT2 cells. It counts as cell-based. Conditions: 100 nM, all insulin doses between 0.1 and 0.001 μg/ml, 5 minutes. On the set-up: a plasmid containing the region encoding the human AT2 receptor; expressed in transfected cells; host or cells: CHO cells deficient in dihydrofolate reductase (clone CHO-hAT2). An excerpt: For that, a stable clone of CHO-hAT2 cells expressing the ATIPmouse-long protein (CHO-hAT2-ATIP), obtained according to the methodology described in Example 4, was used; the functional test for the activity of the AT2 receptor developed on the CHO-hAT2 clone which consists in inhibiting the phosphorylation of the IRβ subunit of the insulin receptor induced by its ligand, was reproduced.
The CHO-hAT2 cells are inoculated at a density of 3×10^6 cells per dish having a diameter of […]. They are made quiescent by 16 hours of deprivation before being treated. The treatment consists in bringing into contact for 5 minutes with 15 ml of F12 medium containing insulin supplemented or otherwise with CGP42112 (selective agonist of the AT2 receptor). […] After bringing into contact and washings, the lectin beads coupled to Sepharose (Pharmacia) are recovered in sample buffer containing SDS and the eluted proteins are analysed in SDS-PAGE followed by immunoblotting with anti-phosphotyrosine antibodies (Upstate Biotechnology, Inc.) or anti-IRβ antibodies (described in Issad, T. et al., cited above).

Regarding Angiotensin II, the “inhibition of the phosphorylation of IRβ induced by insulin” value is on record as “inhibit”.
